# Antibody variant affinities, Ab-14 heavy chain, assay B

Values reported by Li et al. 2023, doi:10.1038/s41467-023-39022-2 (FLAb copy).

The target is the same throughout: PDVDLGDISGINAS, from the HR2 region of SARS-CoV-2 spike.

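The parent was found by panning a naive human phage display library on the peptide. The variants were designed computationally from a first round of random CDR variants and then made and measured. Their group label is 14H_Rand (Rand: our label for a block that the file lists under HC and that is probably the random mutants of the ten best first-round binders). Affinity was read by AlphaSeq, a pooled yeast mating assay with surface-displayed partners. Binding brings cells together so that they mate, and sequencing counts the barcode pairs among the diploids. A regression on co-assayed BCL2-family reference pairs converts the normalised counts of each replicate to an apparent Kd. There are six technical replicates.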

Parent: Ab-14, a human scFv built as VH, the linker GGGGSGGGGSGGGGS, VL. Only the CDRs of the heavy chain vary.
VH: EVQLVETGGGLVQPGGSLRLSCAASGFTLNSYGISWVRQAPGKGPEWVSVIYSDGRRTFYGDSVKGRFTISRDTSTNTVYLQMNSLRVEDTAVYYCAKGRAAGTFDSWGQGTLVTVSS
VL: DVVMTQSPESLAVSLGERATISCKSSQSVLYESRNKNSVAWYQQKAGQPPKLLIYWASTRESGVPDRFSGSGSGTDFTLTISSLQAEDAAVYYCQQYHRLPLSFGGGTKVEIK

Positions count from residue 1 of the parent VH; S31E puts E in place of S. The read-out is the apparent dissociation constant on a log10 scale (nM): the lower, the stronger. "ND" marks a missing value. The strain was present, yet no cells mated with the target were sequenced in that replicate, which points to weak or no binding. Values of this round are not directly comparable with the first-round values of the same sequences. The authors' rule: three or more of the six replicates give a measured affinity, fewer mean a poor binder. Of ten entries with the parent sequence, four were seen in most replicates (averages 0.34 to 2.37), three in one and three in none, so single entries are noisy. Background: pairings of all heavy chain designs with three empty control strains gave a value in 1% of cases (median 2.08, 5th percentile 0.84). Values in that range, when seen in few replicates, are hard to tell from nonspecific mating. For each scFv, signals with the empty controls are counted beside the result, with their mean in brackets.

| changes | log10 Kd (nM) by replicate | control signals |
|---|---|---|
| S31E/T58A/G61T/A101F/A102R/T104G | ND / 1.19 / ND / ND / ND / 2.40 | 1 of 18 (0.99) |
| G26A/T28P/N30D/F105A/D106L | ND / ND / ND / ND / ND / ND | 0 of 18 |
| G26N/S31H/D54R/F59Q/G61I/G99T | ND / ND / ND / ND / ND / ND | 0 of 18 |
| S31D/F59L/G61I/R100H/T104F | ND / ND / ND / ND / ND / ND | 0 of 18 |
| S31D/S35W/Y52P/F59Q/G61I/G99R | ND / ND / ND / ND / 2.79 / ND | 1 of 18 (3.11) |
| S31E/I34L/G61T/A101F | ND / ND / 1.92 / ND / 2.90 / ND | 0 of 18 |
| R57N/G61S/A102G | ND / ND / ND / ND / ND / ND | 1 of 18 (2.30) |
| S31Q/G61S/V64C/T104F | ND / 2.90 / ND / ND / 2.71 / ND | 0 of 18 |
| T28D/S53L/T104W/D106N | ND / ND / ND / ND / ND / ND | 1 of 18 (2.55) |
| L29M/G55H/G61D/R100Q/A101T | ND / ND / ND / ND / ND / ND | 0 of 18 |
| N30D/G33H/T58K/G61Q/V64D/G99A/A102F/F105A/D106L | ND / ND / ND / ND / ND / ND | 0 of 18 |
| L29H/S31D/D54A/F59Q/G61I | ND / ND / ND / ND / ND / ND | 0 of 18 |
| S31L/I51H/R56C/G61S/T104F | ND / ND / ND / ND / ND / ND | 0 of 18 |
| T28D/S31H/S53N/S63K/T104W/D106N | ND / ND / ND / ND / ND / ND | 0 of 18 |
| S31E/Y32S/S35Q/G55R/G61T/A101F/S107K | ND / ND / ND / ND / ND / ND | 0 of 18 |
| S31D/Y52G/G103L/D106I | ND / ND / ND / 2.00 / ND / ND | 1 of 18 (1.18) |
| G33K/G61D/D62C/R100Q/A101L | ND / ND / ND / ND / ND / ND | 0 of 18 |
| G61D/D62M/R100Q/A101L | ND / ND / ND / ND / ND / 2.10 | 0 of 18 |
| T28W/L29V/S31E/S53Y/G61H/D62Q/G99R/G103V/S107Q | ND / ND / ND / ND / ND / ND | 0 of 18 |
| S53A/Y60G/T104K/F105N/D106K | ND / ND / ND / ND / ND / ND | 0 of 18 |
| N30A/G61D/R100Q/A101G | ND / ND / ND / ND / ND / ND | 1 of 18 (0.17) |
| S53A/A101D/G103S/F105N/D106K | ND / ND / ND / ND / ND / ND | 0 of 18 |
| S31D/I51Q/R56Y/F59Q/G61I | ND / ND / ND / ND / ND / ND | 0 of 18 |
| S31E/S53L/G103V/S107Q | ND / ND / ND / ND / ND / ND | 0 of 18 |
| N30D/Y52D/A101W/F105A/D106L | 2.09 / ND / ND / ND / ND / ND | 0 of 18 |
| N30H/S53A/D54L/R100D/F105N/D106G | ND / ND / ND / ND / ND / ND | 0 of 18 |
| S53A/F59L/F105N/D106K | ND / ND / ND / ND / ND / ND | 0 of 18 |
| F59D/G61D/R100Q/A101L | ND / ND / ND / ND / ND / ND | 1 of 18 (2.15) |
| Y32E/G61D/R100Q/A101L | 2.18 / 2.17 / 1.06 / 0.83 / 1.51 / 1.56 | 1 of 18 (3.08) |
| F27V/G33Q/F59H/G61S/A102G | ND / ND / ND / ND / ND / ND | 0 of 18 |
| T28D/S53P/D62H/F105N/D106K | ND / ND / ND / ND / ND / ND | 0 of 18 |
| G26R/S31E/Y60A/G61T/D62I/A101F | ND / ND / ND / ND / ND / ND | 0 of 18 |
| G61S/S63W/A102G | ND / ND / ND / ND / ND / ND | 0 of 18 |
| S31E/T58A/G61T/D62T/V64K/R100W/A101F | ND / ND / ND / ND / ND / ND | 0 of 18 |
| S31E/D54V/G61T/R100V/A101F | ND / ND / ND / 2.22 / ND / ND | 1 of 18 (1.48) |
| G26E/S31E/V64S/G103V/S107Q | ND / ND / ND / ND / ND / ND | 0 of 18 |
| S31D/R56E/F59Q/G61I/A102S | ND / ND / 2.82 / ND / ND / ND | 0 of 18 |
| N30M/S31Q/G61S/A101Q/T104F | ND / ND / ND / ND / ND / ND | 0 of 18 |
| S31D/G103L/T104L/D106I | ND / ND / ND / ND / ND / ND | 0 of 18 |
| I51M/G61D/R100Q/A101L | 0.70 / 0.80 / 0.89 / 1.67 / 1.32 / 2.03 | 0 of 18 |
| G26N/T28D/T104W/D106N | ND / ND / ND / ND / ND / ND | 0 of 18 |
| F27Y/G61S/V64M/G99C/A102G | ND / ND / ND / ND / ND / ND | 0 of 18 |
| Y32D/S53V/R100I/F105N/D106K | ND / ND / ND / ND / ND / ND | 0 of 18 |

3 of these entries, quoted again:

{"changes": "S31E/I34L/G61T/A101F", "log10 Kd (nM) by replicate": "ND / ND / 1.92 / ND / 2.90 / ND", "control signals": "0 of 18"}
{"changes": "G26N/S31H/D54R/F59Q/G61I/G99T", "log10 Kd (nM) by replicate": "ND / ND / ND / ND / ND / ND", "control signals": "0 of 18"}
{"changes": "S31D/I51Q/R56Y/F59Q/G61I", "log10 Kd (nM) by replicate": "ND / ND / ND / ND / ND / ND", "control signals": "0 of 18"}